Results: patent US20080070924A1 (priority 2003, published 2008)

Test system: fentanyl cue

(+)-(B)-trans-4-[1-[3,5-bis(trifluoromethyl)benzoyl]-2-(phenylmethyl)-4-piperidinyl]-N-(2,6-dimethylphenyl)-1-piperazine acetamide (L)-malic acid (1:1)
effect of pretreatment on the stimulus generalization of fentanyl (fentanyl trained rats, pretreatment with 10 or 40 mg/kg): did not affect the stimulus generalization of fentanyl | generalization to / antagonism of the fentanyl cue (rats, 0.63 to 40 mg/kg s.c.): did not show any generalization to nor any antagonism of the fentanyl cue
